Measurements taken from patent US20250382264A1, “HETEROCYCLE-CONTAINING AMINO ACID COMPOUND AND COMPLEX” (AICHI STEEL CORPORATION, priority 2022, published 2025).
Where two headings read alike, the source gives them in different places.

Tests used:
[1] = Absorbance of aqueous iron complex solution irradiated with ultraviolet rays (253.7 nm); type: physicochemical; settings: aqueous solution of the Fe complex of the named ligand, Fe 100 μM, pH 5.0, ultraviolet 253.7 nm, 10-mm cell
Method: For comparison, absorbance measurement was performed using an aqueous solution of each of an iron complex of ethylenediaminetetraacetic acid (EDTA) (hereinafter, referred to as “Fe-EDTA”), an iron complex of diethylenetriamine-N,N,N',N'',N''-pentaacetic acid (DTPA) (hereinafter, referred to as “Fe-DTPA”), an iron complex of hydroxybenzylethylenediamine (HBED) (hereinafter, referred to as “Fe-HBED”), an iron complex of N,N'-ethylene-bis([…]) (hereinafter, referred to as “Fe-EDDHA”), an iron complex of citric acid, and an iron complex (hereinafter, referred to as “Fe-PDMA”) of a compound represented by the following formula (hereinafter, referred to as “PDMA”). […] Subsequently, a deionized water was added to fill up to 220 mL. This aqueous solution was left to stand at a temperature of 25° C. for 1 hour to yield an aqueous solution of an iron complex having an Fe concentration of 100 μM (5.6 ppm). Thereafter, the absorbance of this aqueous complex solution was measured. […] Subsequently, a deionized water was added to fill up to 220 mL. […] Thereafter, the absorbance of this aqueous complex solution was measured in the same manner as described above (see Table 1). […] Subsequently, about 220 mL of a deionized water was added to the resultant mixture to yield an aqueous complex solution having an Fe concentration of 100 μM (5.6 ppm).

“iron complex of N,N′-ethylene-bis(hydroxyphenyl)glycine [Fe-EDDHA]” showed an Absorbance [1] of 1.117.
Substance “iron complex of diethylenetriamine-N,N,N′,N″,N″-pentaacetic acid [Fe-DTPA]” has a Fe concentration (nutrient solution pH 5.0, 253.7 nm, ultraviolet irradiation time 15 min) of 4.8 mg/L, a Fe concentration (nutrient solution pH 5.0, 253.7 nm, ultraviolet irradiation time 30 min) of 0.6 mg/L and a Fe concentration (nutrient solution pH 5.0, 253.7 nm, ultraviolet irradiation time 60 min) of 0 mg/L. It also gave a Fe concentration (nutrient solution pH 5.0, 253.7 nm, ultraviolet irradiation time 90 min) of 0 mg/L and a Fe concentration (nutrient solution pH 5.0, Fe 100 μM, ultraviolet irradiation time 0 min) of 4.8 mg/L.
